The nature of data set [1]: in vivo. To be noted: mouse, po, mice, LD50/writhing ID50, read-out: TI (therapeutic index). The protocol: Between the 5th and 10th minute after the administration of acetic acid total number of the typical writhing reactions was counted, and expressed as percentage of the control. The experiments were performed in groups of at least 12 mice; measurements were done 60 min. after oral application of the test compounds.

The nature of data set [2]: in vivo. The settings on record: po. The protocol:
The observation period after treatment lasted for 14 days.
Statistical evaluation was carried out as described by Litchfield-Wilcoxon's method.

The test system of the next data set is gastric mucosa of rats. Description: Measurement of ulcerogenic activity. In kind it is in vivo.
A short description of data set [3]: Writhing test in rats (acetic acid). The settings on record: rat, in vivo, po. The protocol:
Five minutes after treatment with acetic acid, total number of characteristic writhing reactions was counted for 10 minutes and expressed as percentage of the control group.
(Writhing tests count abdominal constrictions after an irritant is injected.)

Data on one molecule can be found in patent publication US4873249A, “Pharmaceutical composition” (EGIS Gyogyszergyar, priority 1986, dated 1989).

By LD50 is commonly meant the dose at which mortality reaches 50%. A higher LD50 goes with lower toxicity. For the molecule `COc1ccc(Cc2cnc(N)nc2N)cc1OC` [Compound A, 2,4-diamino-5-(3,4-dimethoxybenzyl)-pyrimidine], the selectivity ratio in “in vivo [1]” is 42.7; in data set [3] it was 102. Besides, the LD50 at 336 h in “in vivo [2]” (mouse) is 6030 mg/kg; in “in vivo [2]” (rat), 3680 mg/kg. In addition, the Ulcus-index was 0.5 with gastric mucosa of rats (250 mg/kg orally 6 and 16 h before decapitation); 0.2 in the data set on gastric mucosa of rats (500 mg/kg orally 6 and 16 h before decapitation); 0 in the data set on gastric mucosa of rats (1000 mg/kg orally 6 and 16 h before decapitation). For the same molecule, the “Effect on ulcus-index (in words)” value in the data set with gastric mucosa of rats (oral, over the doses of Table 4) is listed as “induces only small alteration even in high doses”.
